The results in this text go back to US20130267484A1, “TREATMENT OF RHEUMATOID ARTHRITIS WITH MASITINIB” (AB SCIENCE, priority 2010, published 2013).

The subject of this series is adults with active RA. As to conditions: initial phase; resolved upon masitinib interruption.
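Note: Open-label phase 2a trial, oral dosing twice daily, incidence of drug-related AEs (>4%) by intensity per Common Toxicity Criteria v3.0, initial 12-week and extension phases.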

Regarding `Cc1ccc(NC(=O)c2ccc(CN3CCN(C)CC3)cc2)cc1Nc1nc(-c2cccnc2)cs1` [masitinib, 4-(4-methylpiperazin-1-ylmethyl)-N-[4-methyl-3-(4-pyridin-3ylthiazol-2-ylamino)phenyl]benzamide], the “Patients with angioedema of moderate intensity (face edema, rash and dyspnea)” value is reported as “One”.
